pIC50: −log10 of the molar value.
Biological target: T1, HLA-DRB1*1501 (DR2w2β1) (Homo sapiens, UniProt P01903+P01911)
T1 construct: expressed in transfected cells
Assay: purified HLA class II binding assay, DRB1*1501 (DR2w2β1)

Amino acid sequences for entries named in this document (tags omitted). Residues count along the entry.
UniProt P01903, 26-254: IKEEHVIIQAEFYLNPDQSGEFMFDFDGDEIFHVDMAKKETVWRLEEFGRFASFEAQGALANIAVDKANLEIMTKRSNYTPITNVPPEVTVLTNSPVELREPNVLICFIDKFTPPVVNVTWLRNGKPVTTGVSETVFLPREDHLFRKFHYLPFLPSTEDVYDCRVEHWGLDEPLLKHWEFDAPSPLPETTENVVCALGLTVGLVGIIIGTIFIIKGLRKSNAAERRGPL
UniProt P01911, 30-266: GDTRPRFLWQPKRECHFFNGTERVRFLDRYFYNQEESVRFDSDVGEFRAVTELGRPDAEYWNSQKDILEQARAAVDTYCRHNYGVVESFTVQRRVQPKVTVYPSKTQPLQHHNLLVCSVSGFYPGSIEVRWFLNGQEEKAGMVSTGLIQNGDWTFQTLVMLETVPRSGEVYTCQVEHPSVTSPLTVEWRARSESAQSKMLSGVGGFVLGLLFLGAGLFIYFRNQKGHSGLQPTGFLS

`CC[C@H](C)[C@H](NC(=O)[C@H](CO)NC(=O)[C@@H]1CCCN1C(=O)[C@@H](NC(=O)[C@@H](NC(=O)[C@H](Cc1ccccc1)NC(=O)[C@H](C)NC(=O)[C@@H](NC(=O)[C@H](Cc1ccc(O)cc1)NC(=O)[C@H](CCCCN)NC(=O)[C@H](CCCNC(=N)N)NC(=O)[C@@H](N)Cc1ccccc1)[C@@H](C)O)[C@@H](C)O)[C@@H](C)CC)C(=O)N[C@@H](CC(N)=O)C(=O)N[C@@H](CC(N)=O)C(=O)N[C@@H](CCC(=O)O)C(=O)O` [Peptide 27.0341] showed a pIC50 of 7.15.

— patent US20050271676A1, “Inducing cellular immune responses to human immunodeficiency virus-1 using peptide and nucleic acid compositions” (Epimmune Inc., priority 1993, published 2005)
